The structures appear in SMILES notation. pEC50: −log10 of the molar value.

The chains behind the UniProt entries cited, without tags or fusion partners. Where a name states a change or a piece, a line headed by the entry shows the natural chain unless it says otherwise.
UniProt P43116: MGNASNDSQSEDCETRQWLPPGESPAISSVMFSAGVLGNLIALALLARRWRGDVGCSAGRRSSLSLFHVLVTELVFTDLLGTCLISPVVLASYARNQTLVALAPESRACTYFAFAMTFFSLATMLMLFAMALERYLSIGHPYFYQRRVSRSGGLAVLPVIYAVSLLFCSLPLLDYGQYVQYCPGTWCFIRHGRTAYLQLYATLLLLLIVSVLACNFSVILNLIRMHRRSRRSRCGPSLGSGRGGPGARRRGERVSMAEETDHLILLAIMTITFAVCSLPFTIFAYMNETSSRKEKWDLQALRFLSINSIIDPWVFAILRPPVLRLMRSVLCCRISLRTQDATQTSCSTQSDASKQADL

From publication PMC6261607, “Novel high–throughput myofibroblast assays identify agonists with therapeutic potential in pulmonary fibrosis that act via EP2 and EP4 receptors” (PLoS ONE, 2018) come the findings set out here.

The subject of one series is NHLF cells. The series is described as follows: RealTime–Glo MT viability assay. To be noted: 10 µM compound.
The target in a further series is T1, human EP2 receptor (Homo sapiens, UniProt P43116).
T1 construct: expressed in transfected cells; host or cells: HEK-293
The series is described as follows: cAMP assay, recombinant HEK–293 cells. It counts as cell-based. As to conditions: HEK–293 expressing human EP2, 30 min. For orientation: Changes in cAMP serve as a functional read-out for many G protein-coupled receptors.

The target in series [1] is T2, EP2 receptor (human PTGER2) (Homo sapiens, UniProt P43116).
T2 construct: host or cells: HEK-293 PathHunter
In words: β–arrestin recruitment assay (PathHunter). It counts as cell-based. As to conditions: HEK–293 PathHunter, 120 min. How it is done:
EP2 and EP4 receptor β–arrestin (HEK–293 human PTGER2 and PTGER4 PathHunter) assays were purchased from DiscoverX. Recombinant HEK–293 PathHunter cells were detached and seeded in 384–well plates and grown overnight in OptiMEM medium (Invitrogen). Compounds were incubated for 120 min at 37°C. Chemiluminescent PathHunter detection reagent was added according to the manufacturer’s instructions followed by luminescence quantification on a microplate reader (PHERAstar, BMG Labtech). EC50 values were calculated using the proprietary IC50Studio software (Idorsia Pharmaceuticals Ltd).
A general note: Recruitment of arrestin is a read-out of receptor activation apart from second messengers.

With `Oc1c(Cl)cc(Cl)c(Cl)c1Cc1c(O)c(Cl)cc(Cl)c1Cl` [Hexachlorophene], the “Effect on viability at 10 µM [% reduction]” value with NHLF cells amounted to 8 % reduction.

As for `CCCCC[C@H](O)/C=C/[C@H]1[C@H](O)CC(=O)[C@@H]1C/C=C\CCCC(=O)O` [PGE2, prostaglandin E2], the results for the pEC50 (on human EP2 receptor; in series [1]) were 10.40 and 6.96, respectively.
